The results in this text go back to ChEMBL document CHEMBL5727521, “Compounds as indoleamine 2,3-dioxygenase inhibitors” (2020).

Amino acid sequences for entries named in this document (tags omitted).
UniProt P14902, whole entry, looked up: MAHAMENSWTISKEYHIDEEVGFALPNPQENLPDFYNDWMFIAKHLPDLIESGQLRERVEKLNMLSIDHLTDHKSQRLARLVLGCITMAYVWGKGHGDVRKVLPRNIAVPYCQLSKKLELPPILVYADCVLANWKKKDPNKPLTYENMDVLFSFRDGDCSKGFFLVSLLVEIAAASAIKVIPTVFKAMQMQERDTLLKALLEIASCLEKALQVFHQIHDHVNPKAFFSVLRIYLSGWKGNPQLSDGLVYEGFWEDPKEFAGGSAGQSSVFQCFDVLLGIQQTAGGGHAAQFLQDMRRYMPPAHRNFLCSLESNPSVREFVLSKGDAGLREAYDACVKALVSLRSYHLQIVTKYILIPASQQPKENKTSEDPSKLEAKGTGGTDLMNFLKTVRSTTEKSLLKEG

By IC50 is commonly meant the concentration needed to halve the response being measured. Read a low IC50 as greater potency in that assay.

For the test, the target named is Indoleamine 2,3-dioxygenase 1 (Homo sapiens, UniProt P14902).

In turn, `CCOC(=O)CNP(=O)(CC)NCCSc1nonc1/C(=N/O)Nc1ccc(F)c(Br)c1` (stereo unspecified) registered an IC50 of 2.68 µM.
